Assay results from PubChem BioAssay AID485344 (National Center for Advancing Translational Sciences (NCATS), 2010).
The entries are a selection whose mix differs from that of the whole data set. Some results for these compounds are left out of this collection, so the calls shown say nothing about other tests. Activity calls are given as the source filed them. Rule as the data show it: active = inhibition above about 30%; inactive = below that, where a call was filed.

Amino acid sequences for entries named in this document (tags omitted).
UniProt P14416, whole entry: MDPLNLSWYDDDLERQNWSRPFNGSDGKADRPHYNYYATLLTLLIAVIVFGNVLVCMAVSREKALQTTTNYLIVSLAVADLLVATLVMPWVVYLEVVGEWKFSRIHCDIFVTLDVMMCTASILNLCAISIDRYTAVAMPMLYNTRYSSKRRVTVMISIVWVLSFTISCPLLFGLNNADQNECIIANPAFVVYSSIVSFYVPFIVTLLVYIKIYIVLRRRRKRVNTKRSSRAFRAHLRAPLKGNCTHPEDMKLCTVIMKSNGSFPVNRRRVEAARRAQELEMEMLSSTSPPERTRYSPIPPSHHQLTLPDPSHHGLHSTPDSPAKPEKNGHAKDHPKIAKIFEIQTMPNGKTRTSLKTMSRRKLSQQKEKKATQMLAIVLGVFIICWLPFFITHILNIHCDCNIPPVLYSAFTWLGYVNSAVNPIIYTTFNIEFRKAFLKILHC

The molecules below were run against D(2) dopamine receptor (Homo sapiens) (UniProt P14416) (assay: HTS Assay for Allosteric Antagonists of the Human D2 Dopamine Receptor: Primary Screen for Antagonists). Settings: HEK293 TREx D2 cells, calcium flux, dopamine EC80; at 10 µM; hits give high values.
Excerpt: NIH Chemical Genomics Center [NCGC] NIH Molecular Libraries Probe Centers Network [MLPCN] MLPCN Grant: NS064831-01 Assay Submitter (PI): David Sibley Dopamine receptors (DARs) are involved in the etiology and/or therapy of a number of neuropsychiatric and endocrine disorders. For instance, all receptor-based antiparkinsonian drugs work via stimulating the D2 DAR subtype whereas all FDA-approved antipsychotic agents are antagonists of this receptor. […] There are three different types of allosteric modulators that we are seeking, two of which will stimulate or augment receptor signaling, allosteric agonists and potentiators, while the third, allosteric antagonists, will attenuate receptor signaling. The present primary screening assay measures compound antagonism after an EC80 addition of dopamine by tracking calcium flux in a […], inducible Hek293 Trex D2 cell line.
Freshly passaged cells are plated in 1536 well black, clear bottom plates at a density of 4000 cells/well in 3 ul of complete media containing 1x tetracycline inducer. After an overnight incubation at 30 C in 5% CO2, cells are loaded with 2 ul of the no wash Calcium Assay Kit (ABD Bioquest) and incubated at room temperature for 30 to 90 minutes. Agonist read: A 10 cycle (1 second/cycle) baseline measurement is taken and then the FDSS online 1536 pintool delivers 23 nl of compound library (as well as dopamine controls) to the plate. The plate is measured for kinetically at 1 cycle/sec for 180 seconds. Following the 180 second read, 1 ul of an EC80 (negative modulation assay) is delivered by an onboard pipette head. Measurements are taken kinetically for an additional 180 seconds.
Also: 0% is about no effect.

Q: Which inhibition does the source give for `O=C(OC1CN2CCC1CC2)C(CO)(c1ccccc1)c1ccccc1` (stereo unspecified) here?
A: inactive: 11.9%

Q: Which inhibition does the source give for `CN(C)c1cccc(C(=O)NCC2(N(C)C)CCCCC2)c1` here?
A: inactive: -7.33%

Q: `COc1ccc(Br)c(C(=O)NCC2(N3CCCCC3)CCCCC2)c1` was tested. Which inhibition did it give?
A: inactive: 19.5%

Q: How did the inhibition turn out when `COc1cc(C(=O)NCC2(N(C)C)CCCCC2)c([N+](=O)[O-])cc1OC` was run?
A: inactive: 2.1%

Q: `CN(C)C1(CNC(=O)c2ccc(Br)cc2)CCCCC1` was tested. Which inhibition did it give?
A: inactive: 0.845%

Q: With `O=C(NCC1(N2CCCCC2)CCCCC1)c1cccc(Cl)c1` as the molecule, how does the inhibition read?
A: inactive: 10.6%

Q: For `COc1ccc(Cl)cc1C(=O)NCC1(N(C)C)CCCCC1`, which inhibition is on record?
A: inactive: -35.3%

Q: For `COc1cccc(C(=O)NCC2(N3CCCCC3)CCCCC2)c1`, which inhibition is on record?
A: inactive: 9.07%

Q: `CN(C)C1CCCC1OC(=O)C(O)(c1ccccc1)c1ccccc1` (stereo unspecified) was tested. Which inhibition did it give?
A: inactive: -4.47%

Q: `CN(C)c1ccc(C(=O)NCC2(N(C)C)CCCCC2)cc1` was tested. Which inhibition did it give?
A: inactive: 0.0085%

Q: With `Cc1ccccc1C(=O)NCC1(N2CCCCC2)CCCCC1` as the molecule, how does the inhibition read?
A: inactive: -14.1%

Q: Which inhibition does the source give for `Cc1cc(C(=O)NCC2(N3CCCCC3)CCCCC2)ccc1[N+](=O)[O-]` here?
A: inactive: -2.99%

Q: With `CCN1CCCC(OC(=O)C2(O)c3ccccc3C=Cc3ccccc32)C1` (stereo unspecified) as the molecule, how does the inhibition read?
A: inactive: -4.98%

Q: How did the inhibition turn out when `COc1ccc(C(=O)NCC2(N(C)C)CCCCC2)cc1` was run?
A: inactive: 4.21%

Q: How did the inhibition turn out when `O=C(NCC1(N2CCCCC2)CCCCC1)c1cc(F)c(F)cc1Cl` was run?
A: inactive: 2.24%

Q: `CN1[C@@H]2CC[C@H]1CC(OC(=O)C(O)(c1ccccc1)c1ccccc1)C2` (stereo partly specified) was tested. Which inhibition did it give?
A: inactive: 6.74%

Q: With `O=C(NCC1(N2CCCCC2)CCCCC1)c1cc([N+](=O)[O-])ccc1Cl` as the molecule, how does the inhibition read?
A: inactive: -16.1%

Q: With `Cc1ccc(C(=O)NCC2(N3CCCCC3)CCCCC2)cc1` as the molecule, how does the inhibition read?
A: inactive: 5.46%

Q: How did the inhibition turn out when `CC(C)N1C(=O)CC2(CCN(CCOC(=O)C(O)(c3ccccc3)c3ccccc3)CC2)C1=O` was run?
A: inactive: 7.35%

Q: `COc1cc(SC)ccc1C(=O)NCC1(N(C)C)CCCCC1` was tested. Which inhibition did it give?
A: inactive: 6.17%

Q: With `CCN(CC)CC(C)C(C)OC(=O)C(O)(c1ccccc1)c1ccccc1` (stereo unspecified) as the molecule, how does the inhibition read?
A: inactive: -13.2%
